This assay addresses 5-HT7 receptor (Homo sapiens, UniProt P34969). The assay can be described thus: Functional assay, intrinsic activity at 5-HT7. In kind it is cell-based.

Chains of the proteins cited; added tags and fusions are not shown.
UniProt P34969, whole entry: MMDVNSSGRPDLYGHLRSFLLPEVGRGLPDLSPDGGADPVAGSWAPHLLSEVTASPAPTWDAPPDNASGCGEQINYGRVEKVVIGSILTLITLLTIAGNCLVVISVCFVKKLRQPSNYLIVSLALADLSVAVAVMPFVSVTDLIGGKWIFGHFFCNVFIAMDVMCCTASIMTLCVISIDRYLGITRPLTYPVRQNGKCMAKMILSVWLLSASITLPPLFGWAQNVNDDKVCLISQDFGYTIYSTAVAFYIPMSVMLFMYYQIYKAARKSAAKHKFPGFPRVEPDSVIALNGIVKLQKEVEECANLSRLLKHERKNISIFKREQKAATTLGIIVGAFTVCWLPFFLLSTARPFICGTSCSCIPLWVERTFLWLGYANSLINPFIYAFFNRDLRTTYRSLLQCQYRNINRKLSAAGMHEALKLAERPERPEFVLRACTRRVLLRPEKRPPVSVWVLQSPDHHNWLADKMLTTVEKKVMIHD

Turning to `CC1CCN(CC[C@H]2CCCN2S(=O)(=O)c2cccc(O)c2)CC1` [SB269970, reference compound], the “Agonist mode Emax %” value (5-HT7, agonist mode) was 4%. Moreover, the “Antagonist mode Emax %” value (5-HT7, antagonist mode) is listed as 8%.

Source of the values: paper PMC6209770 (Frontiers in Pharmacology, 2018).
